{
  "source": "patent US7837670B2",
  "about": "“Methods and devices for delivering therapeutic agents into the prostate gland” (Boston Scientific Scimed, Inc., priority 2005, dated 2010)",
  "experiment": "Autoradiography of the prostate after transurethral catheter injection of tritium labeled agent",
  "key": {"[1]": {"conditions": "12 hours after transurethral injection of 100 uCi 3H-testosterone"}, "[2]": {"conditions": "48 hours after transurethral injection of 100 uCi 3H-testosterone"}},
  "data": [
    {"substance": "3H-testosterone [tritium labeled testosterone]", "values": [
      {"measurement": "free (extra-nuclear) activity in prostate", "setting": "[1]", "result": "periphery of the gland. Practically no free (extra-nuclear)"},
      {"measurement": "glandular nuclear activity (autoradiographic labeling) in prostate", "setting": "[1]", "result": "Strong, selective glandular (but not stromal or muscular)"},
      {"measurement": "extra-nuclear labeling in prostate", "setting": "[2]", "result": "covers the whole prostate, minimal scattered extra-nuclear"},
      {"measurement": "glandular nuclear activity (autoradiographic labeling) in prostate", "setting": "[2]", "result": "Still strong, although somewhat less activity over the"}
    ]}
  ]
}
